This is an account of results in article PMC5206724, “Insensitivity to pain induced by a potent selective closed-state Nav1.7 inhibitor” (Scientific Reports, 2017).

Amino acid sequences for entries named in this document (tags omitted).
UniProt Q9UQD0, whole entry: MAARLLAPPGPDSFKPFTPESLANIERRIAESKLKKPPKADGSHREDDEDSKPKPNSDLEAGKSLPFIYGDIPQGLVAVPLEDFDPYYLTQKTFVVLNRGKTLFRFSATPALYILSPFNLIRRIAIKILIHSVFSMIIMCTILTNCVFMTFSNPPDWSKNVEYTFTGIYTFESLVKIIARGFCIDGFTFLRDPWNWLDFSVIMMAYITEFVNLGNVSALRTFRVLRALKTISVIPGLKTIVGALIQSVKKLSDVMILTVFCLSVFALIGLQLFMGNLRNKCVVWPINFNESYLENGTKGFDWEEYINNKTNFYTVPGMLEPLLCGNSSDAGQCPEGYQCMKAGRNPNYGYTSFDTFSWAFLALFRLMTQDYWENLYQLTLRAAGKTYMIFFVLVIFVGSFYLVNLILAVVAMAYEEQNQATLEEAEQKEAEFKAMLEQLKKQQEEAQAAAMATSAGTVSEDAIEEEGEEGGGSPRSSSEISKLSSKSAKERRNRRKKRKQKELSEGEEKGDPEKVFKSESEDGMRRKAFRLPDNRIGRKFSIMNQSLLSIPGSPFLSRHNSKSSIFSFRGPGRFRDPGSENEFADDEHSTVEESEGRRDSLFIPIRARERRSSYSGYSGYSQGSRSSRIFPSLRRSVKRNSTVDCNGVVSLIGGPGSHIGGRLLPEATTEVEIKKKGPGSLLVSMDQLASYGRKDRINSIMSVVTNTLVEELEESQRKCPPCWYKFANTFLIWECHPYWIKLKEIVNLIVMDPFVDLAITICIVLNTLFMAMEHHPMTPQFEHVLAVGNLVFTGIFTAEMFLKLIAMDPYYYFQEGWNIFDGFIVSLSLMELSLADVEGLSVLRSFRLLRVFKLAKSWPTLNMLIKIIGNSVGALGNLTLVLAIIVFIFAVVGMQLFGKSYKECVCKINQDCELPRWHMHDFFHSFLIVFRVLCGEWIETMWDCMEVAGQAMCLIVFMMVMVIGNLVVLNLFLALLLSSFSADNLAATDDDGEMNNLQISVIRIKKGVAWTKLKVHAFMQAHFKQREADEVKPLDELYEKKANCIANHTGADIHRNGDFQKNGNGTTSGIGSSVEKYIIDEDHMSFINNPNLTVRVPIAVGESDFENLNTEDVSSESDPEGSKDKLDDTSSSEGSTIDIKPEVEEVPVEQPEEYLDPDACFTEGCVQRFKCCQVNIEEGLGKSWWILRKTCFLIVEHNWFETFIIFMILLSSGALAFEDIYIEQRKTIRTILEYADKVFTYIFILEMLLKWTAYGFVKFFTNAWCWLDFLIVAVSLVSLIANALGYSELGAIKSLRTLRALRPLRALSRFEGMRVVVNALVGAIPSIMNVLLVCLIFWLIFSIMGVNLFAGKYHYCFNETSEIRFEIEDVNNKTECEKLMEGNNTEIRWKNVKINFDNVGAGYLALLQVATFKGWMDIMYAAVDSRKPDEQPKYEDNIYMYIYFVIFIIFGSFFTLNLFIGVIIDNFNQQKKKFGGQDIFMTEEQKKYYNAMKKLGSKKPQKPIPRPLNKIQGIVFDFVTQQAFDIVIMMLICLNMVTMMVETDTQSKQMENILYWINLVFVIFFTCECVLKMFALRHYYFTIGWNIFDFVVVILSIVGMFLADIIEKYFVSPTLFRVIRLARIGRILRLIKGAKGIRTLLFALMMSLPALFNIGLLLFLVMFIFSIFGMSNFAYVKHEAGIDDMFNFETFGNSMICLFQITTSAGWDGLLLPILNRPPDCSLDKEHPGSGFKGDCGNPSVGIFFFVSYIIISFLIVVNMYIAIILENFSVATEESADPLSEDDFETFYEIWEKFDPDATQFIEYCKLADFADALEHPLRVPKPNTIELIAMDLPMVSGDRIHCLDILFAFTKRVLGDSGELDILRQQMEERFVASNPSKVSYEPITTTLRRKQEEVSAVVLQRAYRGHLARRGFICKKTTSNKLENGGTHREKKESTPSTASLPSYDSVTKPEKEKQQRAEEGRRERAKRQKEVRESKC
UniProt P35372, whole entry: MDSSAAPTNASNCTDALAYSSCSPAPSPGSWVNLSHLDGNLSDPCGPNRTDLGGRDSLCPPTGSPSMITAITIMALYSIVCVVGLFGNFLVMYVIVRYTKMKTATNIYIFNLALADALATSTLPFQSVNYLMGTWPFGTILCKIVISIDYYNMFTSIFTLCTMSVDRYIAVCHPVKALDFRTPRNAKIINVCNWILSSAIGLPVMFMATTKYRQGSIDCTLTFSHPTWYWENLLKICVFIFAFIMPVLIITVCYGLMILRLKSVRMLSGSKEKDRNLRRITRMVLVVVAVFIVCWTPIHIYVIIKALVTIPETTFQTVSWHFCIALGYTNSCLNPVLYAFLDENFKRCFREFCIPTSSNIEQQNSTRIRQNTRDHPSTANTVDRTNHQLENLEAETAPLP
UniProt P35499, whole entry: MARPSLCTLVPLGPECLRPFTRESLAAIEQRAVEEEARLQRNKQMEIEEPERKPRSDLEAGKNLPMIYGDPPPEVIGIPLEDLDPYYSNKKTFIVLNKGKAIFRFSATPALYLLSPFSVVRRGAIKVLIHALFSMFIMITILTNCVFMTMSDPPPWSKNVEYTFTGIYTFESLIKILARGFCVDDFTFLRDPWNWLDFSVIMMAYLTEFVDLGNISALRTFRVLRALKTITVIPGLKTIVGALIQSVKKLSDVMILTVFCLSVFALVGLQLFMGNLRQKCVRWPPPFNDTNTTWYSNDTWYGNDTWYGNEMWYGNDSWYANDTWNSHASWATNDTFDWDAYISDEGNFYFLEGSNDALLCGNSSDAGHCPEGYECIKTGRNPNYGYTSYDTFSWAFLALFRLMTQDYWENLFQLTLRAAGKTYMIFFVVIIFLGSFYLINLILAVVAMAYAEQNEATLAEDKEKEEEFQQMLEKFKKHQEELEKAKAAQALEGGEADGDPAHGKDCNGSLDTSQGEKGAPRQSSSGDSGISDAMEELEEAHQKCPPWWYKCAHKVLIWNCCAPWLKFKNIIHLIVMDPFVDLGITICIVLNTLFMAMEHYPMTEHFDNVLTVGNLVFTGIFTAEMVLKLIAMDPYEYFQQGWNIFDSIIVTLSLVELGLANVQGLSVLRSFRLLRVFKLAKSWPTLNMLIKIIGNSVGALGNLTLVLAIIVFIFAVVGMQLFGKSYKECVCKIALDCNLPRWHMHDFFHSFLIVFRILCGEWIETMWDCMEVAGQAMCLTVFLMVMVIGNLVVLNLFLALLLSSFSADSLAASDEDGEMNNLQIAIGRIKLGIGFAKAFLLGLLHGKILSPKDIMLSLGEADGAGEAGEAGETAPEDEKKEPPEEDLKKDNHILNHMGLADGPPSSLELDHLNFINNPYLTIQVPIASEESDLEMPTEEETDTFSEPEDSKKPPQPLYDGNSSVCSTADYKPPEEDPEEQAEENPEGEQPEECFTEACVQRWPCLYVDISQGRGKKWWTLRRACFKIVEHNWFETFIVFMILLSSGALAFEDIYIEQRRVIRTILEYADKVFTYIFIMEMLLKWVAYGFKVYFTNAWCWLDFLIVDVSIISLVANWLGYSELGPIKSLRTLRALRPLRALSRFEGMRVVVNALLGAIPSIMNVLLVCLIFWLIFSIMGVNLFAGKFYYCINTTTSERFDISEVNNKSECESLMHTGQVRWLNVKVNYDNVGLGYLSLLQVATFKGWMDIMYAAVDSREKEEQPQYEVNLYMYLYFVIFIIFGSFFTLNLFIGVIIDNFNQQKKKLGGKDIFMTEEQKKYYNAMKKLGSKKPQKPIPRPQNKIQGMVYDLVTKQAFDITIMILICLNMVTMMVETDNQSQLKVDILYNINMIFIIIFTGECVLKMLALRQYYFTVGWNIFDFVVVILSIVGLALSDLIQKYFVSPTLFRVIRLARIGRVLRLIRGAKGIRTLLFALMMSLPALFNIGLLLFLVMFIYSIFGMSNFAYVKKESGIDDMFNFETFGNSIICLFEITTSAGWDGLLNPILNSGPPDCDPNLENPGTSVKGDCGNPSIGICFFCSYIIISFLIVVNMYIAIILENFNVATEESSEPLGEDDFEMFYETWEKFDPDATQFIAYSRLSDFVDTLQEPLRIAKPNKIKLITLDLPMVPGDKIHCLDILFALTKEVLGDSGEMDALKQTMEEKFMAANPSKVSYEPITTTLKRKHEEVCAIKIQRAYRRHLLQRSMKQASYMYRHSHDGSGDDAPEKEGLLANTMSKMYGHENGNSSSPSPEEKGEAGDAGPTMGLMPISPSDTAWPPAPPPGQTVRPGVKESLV
UniProt Q14524, whole entry: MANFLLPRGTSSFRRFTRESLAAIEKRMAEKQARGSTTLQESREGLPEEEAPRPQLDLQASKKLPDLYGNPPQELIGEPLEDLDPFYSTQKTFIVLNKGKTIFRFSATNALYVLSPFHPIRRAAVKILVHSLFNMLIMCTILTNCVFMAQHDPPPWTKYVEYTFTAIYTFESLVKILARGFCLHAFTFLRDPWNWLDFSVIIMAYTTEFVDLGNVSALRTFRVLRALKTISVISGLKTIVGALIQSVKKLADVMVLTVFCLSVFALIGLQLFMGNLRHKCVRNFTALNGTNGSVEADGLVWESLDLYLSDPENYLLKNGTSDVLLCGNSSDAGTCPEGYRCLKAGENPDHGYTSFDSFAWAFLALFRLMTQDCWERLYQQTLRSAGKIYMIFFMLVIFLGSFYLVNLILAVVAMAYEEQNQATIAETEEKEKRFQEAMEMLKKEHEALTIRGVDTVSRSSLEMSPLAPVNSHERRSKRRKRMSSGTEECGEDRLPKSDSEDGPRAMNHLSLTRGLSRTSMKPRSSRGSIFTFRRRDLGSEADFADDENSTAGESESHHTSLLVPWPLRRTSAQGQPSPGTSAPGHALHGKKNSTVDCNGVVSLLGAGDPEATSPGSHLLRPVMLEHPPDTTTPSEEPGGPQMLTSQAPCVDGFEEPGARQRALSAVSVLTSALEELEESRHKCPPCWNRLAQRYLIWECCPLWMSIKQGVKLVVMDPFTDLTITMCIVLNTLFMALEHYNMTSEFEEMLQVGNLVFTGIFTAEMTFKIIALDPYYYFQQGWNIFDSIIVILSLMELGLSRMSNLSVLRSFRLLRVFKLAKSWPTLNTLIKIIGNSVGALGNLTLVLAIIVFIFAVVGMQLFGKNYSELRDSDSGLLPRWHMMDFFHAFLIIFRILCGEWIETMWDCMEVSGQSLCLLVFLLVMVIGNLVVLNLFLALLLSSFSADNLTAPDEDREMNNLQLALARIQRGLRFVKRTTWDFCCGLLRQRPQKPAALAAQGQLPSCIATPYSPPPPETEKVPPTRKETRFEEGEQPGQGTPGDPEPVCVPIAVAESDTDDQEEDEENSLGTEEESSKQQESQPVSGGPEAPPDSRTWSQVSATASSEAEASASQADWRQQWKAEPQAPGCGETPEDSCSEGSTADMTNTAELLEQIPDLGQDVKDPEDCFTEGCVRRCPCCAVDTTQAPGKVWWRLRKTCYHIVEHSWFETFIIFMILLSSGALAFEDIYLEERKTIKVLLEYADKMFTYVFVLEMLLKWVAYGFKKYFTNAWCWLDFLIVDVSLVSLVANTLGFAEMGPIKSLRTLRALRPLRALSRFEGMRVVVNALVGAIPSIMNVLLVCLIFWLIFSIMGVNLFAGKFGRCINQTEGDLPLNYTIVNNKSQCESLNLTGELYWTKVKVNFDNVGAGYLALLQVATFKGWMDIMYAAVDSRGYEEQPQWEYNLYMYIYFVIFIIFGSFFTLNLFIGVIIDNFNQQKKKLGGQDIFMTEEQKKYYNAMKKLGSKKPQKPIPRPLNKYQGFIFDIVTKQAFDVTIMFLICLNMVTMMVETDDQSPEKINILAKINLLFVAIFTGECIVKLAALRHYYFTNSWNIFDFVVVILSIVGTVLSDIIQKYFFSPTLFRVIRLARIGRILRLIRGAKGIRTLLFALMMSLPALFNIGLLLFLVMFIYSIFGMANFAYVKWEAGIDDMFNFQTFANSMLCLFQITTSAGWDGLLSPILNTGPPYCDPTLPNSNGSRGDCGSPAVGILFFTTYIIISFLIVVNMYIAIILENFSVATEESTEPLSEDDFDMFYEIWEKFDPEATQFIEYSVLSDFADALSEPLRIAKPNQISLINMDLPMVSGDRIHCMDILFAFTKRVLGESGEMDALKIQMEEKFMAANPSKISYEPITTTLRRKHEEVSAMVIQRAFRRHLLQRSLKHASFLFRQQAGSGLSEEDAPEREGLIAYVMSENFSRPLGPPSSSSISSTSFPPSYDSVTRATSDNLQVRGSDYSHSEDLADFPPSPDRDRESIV

Where two headings read alike, the source gives them in different places.

The target in test [1] is T1, hNav1.6 (Homo sapiens, UniProt Q9UQD0). Put plainly: cell-based. Type of test: cell-based.
A further test addresses mu opioid receptor (Homo sapiens, UniProt P35372). The test can be described thus: Opioid receptor cAMP HTRF assay, mu. Type of test: cell-based. For orientation: Time-resolved FRET reads energy transfer from a long-lived donor to a nearby acceptor.
Test [2] addresses T2, hNav1.7 (Homo sapiens, UniProt Q15858).
T2 construct: host or cells: HEK293
The test can be described thus: cell-based.

The target of test [3] is T3, hNav1.2 (Homo sapiens, UniProt Q99250). The test can be described thus: cell-based. Type of test: cell-based.
In test [4] the target is T1, hNav1.6. Type of test: cell-based.
For test [5], the target named is T4, hNav1.4 (Homo sapiens, UniProt P35499). The test can be described thus: cell-based. Type of test: cell-based.
Test [6] concerns the target T5, hNav1.5 (Homo sapiens, UniProt Q14524). The test can be described thus: cell-based.
Test [7] has as its target T5, hNav1.5.
Test [8] has as its target T2, hNav1.7. The test can be described thus: cell-based. The conditions noted are these: manual patch clamp (MPC), holding −120 mV, test −10 mV, 0.1% BSA, 22–24 °C; read-out: pIC50 hNav1.7 (converted). Background: In patch-clamp work, channel activity is measured electrically.
For test [9], the target named is T4, hNav1.4. Put plainly: cell-based. Type of test: cell-based. This is another data set of the same source.
Test [10] concerns the target T3, hNav1.2. Put plainly: cell-based. Type of test: cell-based. This is another data set of the same source.
The target in test [11] is T6, hNav1.1 (Homo sapiens, UniProt P35498). Put plainly: cell-based. Type of test: cell-based.
Test [12] deals with T6, hNav1.1. It counts as cell-based.
For a further test, the target named is kappa opioid receptor (Homo sapiens, UniProt P41145). Put plainly: Opioid receptor cAMP HTRF assay, kappa. It counts as cell-based.
In another test the target is delta opioid receptor (Homo sapiens, UniProt P41143). Put plainly: Opioid receptor cAMP HTRF assay, delta. Type of test: cell-based.
Test [13] concerns the target T5, hNav1.5. The test can be described thus: cell-based. It counts as cell-based.
Another test concerns the target hNav1.3 (Homo sapiens, UniProt Q9NY46). It counts as cell-based.

For the molecule `CSCC[C@@H]1NC(=O)CNC(=O)[C@H](CCC(=O)O)NC(=O)[C@@H]2CSSC[C@H](NC(=O)[C@H](Cc3ccc(O)cc3)NC(=O)[C@@H]3CCCN3C(=O)CN)C(=O)N[C@@H](CCC(N)=O)C(=O)N[C@@H](CCCCN)C(=O)N[C@@H](Cc3c[nH]c4ccccc34)C(=O)N[C@@H](CCSC)C(=O)N[C@@H](CCC(N)=O)C(=O)N[C@@H]([C@@H](C)O)C(=O)N[C@H]3CSSC[C@H](NC(=O)[C@H](C(C)C)NC1=O)C(=O)N[C@@H](CCCNC(=N)N)C(=O)N[C@@H](CC(C)C)C(=O)N[C@@H](Cc1c[nH]c4ccccc14)C(=O)N[C@H](C(=O)N[C@@H](CCCCN)C(=O)N[C@@H](CCCCN)C(=O)N[C@@H](CCCCN)C(=O)N[C@@H](CC(C)C)C(=O)N[C@@H](CC(C)C)C(=O)O)CSSC[C@H](NC(=O)[C@H](CCCCN)NC(=O)[C@H](CCCNC(=N)N)NC(=O)[C@H](CCC(=O)O)NC(=O)[C@H](CO)NC(=O)[C@H](CC(=O)O)NC3=O)C(=O)N2` [JNJ63955918], the “Fold Nav1.7 selectivity vs hNav1.6” value on hNav1.6 [1] stood at 251.2 Fold; on hNav1.6 [4], 100 Fold. Besides, the IC50 at hNav1.6 [1] (QPatch, CHO cells, holding −60 mV, 0.1% BSA, ~22 °C, ± SEM, read-out: pIC50 hNav1.6 (converted)) was 2510 nM; on mu opioid receptor (printed as pIC50 or pEC50, read-out: pIC50 mu opioid receptor (antagonist) (converted)), more than 2510 nM; on hNav1.7 [2] (read-out: pIC50 hNav1.7 (converted)), 10 nM; against hNav1.2 [3] it was 794 nM; on hNav1.4 [5] (QPatch, HEK293 cells, holding −75 mV, 0.1% BSA, ~22 °C, ± SEM, read-out: pIC50 hNav1.4 (converted)) it was 15800 nM; against hNav1.5 [6] it was more than 10000 nM. For the same molecule, the IC50 at hNav1.7 [8] was 10 nM; on hNav1.4 [9] (manual patch clamp, holding −120 mV, test −10 mV, 0.1% BSA, 22–24 °C, read-out: pIC50 hNav1.4 (converted)), 5010 nM; on hNav1.2 [10], 1580 nM; on hNav1.1 [11] (QPatch, CHO cells, holding −60 mV, 0.1% BSA, ~22 °C, ± SEM, read-out: pIC50 hNav1.1 (converted)), 6310 nM; on kappa opioid receptor (printed as pIC50 or pEC50, read-out: pIC50 kappa opioid receptor (antagonist) (converted)), more than 2510 nM; at delta opioid receptor (printed as pIC50 or pEC50, read-out: pIC50 delta opioid receptor (antagonist) (converted)), more than 2510 nM. This molecule also displayed an IC50 against hNav1.5 [13] of more than 3160 nM. The EC50 on mu opioid receptor (printed as pIC50 or pEC50, read-out: pEC50 mu opioid receptor (agonist) (converted)) was more than 2510 nM; at kappa opioid receptor (printed as pIC50 or pEC50, read-out: pEC50 kappa opioid receptor (agonist) (converted)) it was more than 2510 nM; on delta opioid receptor (printed as pIC50 or pEC50, read-out: pEC50 delta opioid receptor (agonist) (converted)) it was more than 2510 nM. Further, the “Fold Nav1.7 selectivity vs hNav1.2” value on hNav1.2 [3] amounted to 79.4 Fold; on hNav1.2 [10], 158.5 Fold. Further, the results for the “Fold Nav1.7 selectivity vs hNav1.4” value on hNav1.4 [5] and on hNav1.4 [9] were 1584.9 Fold and 501.2 Fold, respectively. The “Fold Nav1.7 selectivity vs hNav1.5” value on hNav1.5 [7] is reported as more than 1000 Fold; at hNav1.5 [13] it was more than 316.2 fold. Besides, the “Fold Nav1.7 selectivity vs hNav1.1” value on hNav1.1 [11] came to 631 Fold; on hNav1.1 [12], 1000 Fold.

By Emax is commonly meant the size of the effect at its maximum, as opposed to the concentration needed. Turning to `CSCC[C@@H]1NC(=O)CNC(=O)[C@H](CCC(=O)O)NC(=O)[C@@H]2CSSC[C@H](NC(=O)[C@@H](N)Cc3ccc(O)cc3)C(=O)N[C@@H](CCC(N)=O)C(=O)N[C@@H](CCCCN)C(=O)N[C@@H](Cc3c[nH]c4ccccc34)C(=O)N[C@@H](CCSC)C(=O)N[C@@H](Cc3c[nH]c4ccccc34)C(=O)N[C@@H]([C@@H](C)O)C(=O)N[C@H]3CSSC[C@H](NC(=O)[C@H](C(C)C)NC1=O)C(=O)N[C@@H](CCCNC(=N)N)C(=O)N[C@@H](CC(C)C)C(=O)N[C@@H](Cc1c[nH]c4ccccc14)C(=O)N[C@H](C(=O)N[C@@H](CCCCN)C(=O)N[C@@H](CCCCN)C(=O)N[C@@H](CCCCN)C(=O)N[C@@H](CC(C)C)C(=O)N[C@@H](Cc1c[nH]c4ccccc14)C(=O)O)CSSC[C@H](NC(=O)[C@H](CCCCN)NC(=O)[C@H](CCCNC(=N)N)NC(=O)[C@H](CCC(=O)O)NC(=O)[C@H](CO)NC(=O)[C@H](CC(=O)O)NC3=O)C(=O)N2` [ProTX-II, reference compound], the “Fold Nav1.7 selectivity vs hNav1.6” value on hNav1.6 [1] was determined as 39.5 fold. Further, the Emax at hNav1.7 [2] (read-out: Fitted Emax hNav1.7) amounted to 88.8 ± 3.1%. Also, at hNav1.2 [3], the “Fold Nav1.7 selectivity vs hNav1.2” value is reported as 99.3 fold. At hNav1.4 [5], the “Fold Nav1.7 selectivity vs hNav1.4” value was determined as 99.3 fold. For the same molecule, the “Fold Nav1.7 selectivity vs hNav1.1” value at hNav1.1 [11] is 19.8 fold. Moreover, the “Fold Nav1.7 selectivity vs hNav1.3” value on hNav1.3 was found to be 31.4 fold. Also, the “Fold Nav1.7 selectivity vs hNav1.5” value at hNav1.5 [13] is on record as 497.6 fold.
